What was measured:
[1] = biological target: T1, Alpha-mannosidase (Canavalia ensiformis) (UniProt C0HJB3); experiment: Inhibition of jack bean alpha-mannosidase using p-nitrophenyl glycoside as substrate assessed as release of p-nitrophenol at 1000 uM by spectrometric analysis relative to control
T1 sequence (whole entry): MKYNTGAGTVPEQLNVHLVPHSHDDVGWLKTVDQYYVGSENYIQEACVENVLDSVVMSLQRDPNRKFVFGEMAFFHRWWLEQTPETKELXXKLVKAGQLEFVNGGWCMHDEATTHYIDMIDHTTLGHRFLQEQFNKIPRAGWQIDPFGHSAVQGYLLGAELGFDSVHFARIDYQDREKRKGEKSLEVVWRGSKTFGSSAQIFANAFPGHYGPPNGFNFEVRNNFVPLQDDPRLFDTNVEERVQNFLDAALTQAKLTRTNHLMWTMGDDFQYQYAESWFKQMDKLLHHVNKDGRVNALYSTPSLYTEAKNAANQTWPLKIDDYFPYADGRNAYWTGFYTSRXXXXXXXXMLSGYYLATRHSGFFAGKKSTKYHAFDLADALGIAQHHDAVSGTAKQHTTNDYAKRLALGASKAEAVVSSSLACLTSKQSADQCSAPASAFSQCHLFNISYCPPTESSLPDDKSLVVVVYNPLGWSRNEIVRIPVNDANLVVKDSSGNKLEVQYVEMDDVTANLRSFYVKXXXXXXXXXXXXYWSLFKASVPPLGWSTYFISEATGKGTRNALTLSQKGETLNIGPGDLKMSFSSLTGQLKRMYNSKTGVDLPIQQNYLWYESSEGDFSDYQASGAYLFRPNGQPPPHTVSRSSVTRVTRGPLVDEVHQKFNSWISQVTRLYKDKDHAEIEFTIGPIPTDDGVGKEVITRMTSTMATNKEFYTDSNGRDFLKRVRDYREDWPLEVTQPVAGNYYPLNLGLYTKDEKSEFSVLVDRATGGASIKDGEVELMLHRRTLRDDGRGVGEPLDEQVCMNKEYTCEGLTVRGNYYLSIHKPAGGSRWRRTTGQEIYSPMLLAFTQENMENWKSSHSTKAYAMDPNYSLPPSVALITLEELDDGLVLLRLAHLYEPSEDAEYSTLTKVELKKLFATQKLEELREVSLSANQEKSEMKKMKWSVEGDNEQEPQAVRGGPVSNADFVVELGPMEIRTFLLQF

Chains of the proteins cited; added tags and fusions are not shown. Lines headed by an entry give the natural chain unless they say otherwise; changes in a name come on top.
UniProt Q42656: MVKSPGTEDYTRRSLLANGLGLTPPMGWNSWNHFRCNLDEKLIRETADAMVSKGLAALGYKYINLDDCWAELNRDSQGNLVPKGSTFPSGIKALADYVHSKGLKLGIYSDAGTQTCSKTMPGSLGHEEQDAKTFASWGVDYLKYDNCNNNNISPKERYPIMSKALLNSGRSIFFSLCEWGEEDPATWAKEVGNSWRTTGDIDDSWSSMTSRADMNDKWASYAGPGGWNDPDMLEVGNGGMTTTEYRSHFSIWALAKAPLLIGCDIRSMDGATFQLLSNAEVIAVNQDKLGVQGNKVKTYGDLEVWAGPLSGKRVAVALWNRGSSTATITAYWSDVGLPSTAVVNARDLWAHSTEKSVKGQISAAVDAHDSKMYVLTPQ

[2] = biological target: Alpha-galactosidase (Coffea arabica) (UniProt Q42656); experiment: Inhibition of coffee bean alpha-galactosidase using p-nitrophenyl glycoside as substrate assessed as release of p-nitrophenol at 1000 uM by spectrometric analysis relative to control

inhibition [1]	inhibition [2]	SMILES
0.2%	–	CCCCCCCCCCCC[C@@H](O)[C@H]1N[C@H](CO)[C@@H](O)[C@@H]1O
4.4%	0%	CCCCCCCCCCC[C@H](O)[C@H]1N[C@H](CO)[C@@H](O)[C@@H]1O
0.7%	–	CCCCCCCCCCCCCC[C@@H](O)[C@H]1N[C@H](CO)[C@@H](O)[C@@H]1O
0.4%	–	CCCCCCCCCCCCCC[C@H](O)[C@H]1N[C@H](CO)[C@@H](O)[C@@H]1O
2.6%	–	CCCCCCCCCCCC[C@H](O)[C@H]1N[C@H](CO)[C@@H](O)[C@@H]1O
5.5%	0%	CCCCCCCCCCC[C@@H](O)[C@H]1N[C@H](CO)[C@@H](O)[C@@H]1O

— ChEMBL document CHEMBL5579830, “Design and synthesis of 6-C-alkyl-DMDP type nanomolar inhibitors of β-galactosidase and β-glucosidase based on broussonetine S and related derivatives” (Eur J Med Chem, 2024)
